## Cyclic peptide permeability, from CycPeptMPDB

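Lipid, pH, incubation time, direction and concentration are not recorded in the data file. The list need not hold all peptides of the study. Entries at the database's floor value (log10 P of -10) are not listed.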

PAMPA is the parallel artificial membrane permeability assay, which has no cells and reads passive diffusion. Permeability is in 10^-6 cm/s, converted from the database's log10 values; higher is more permeable.

| PAMPA (10^-6 cm/s) | SMILES |
|---|---|
| 1 | CCCN1CC(=O)N[C@H](CC(C)C)C(=O)N(C)[C@@H](CC(C)C)C(=O)N2CCC[C@@H]2C(=O)N[C@@H](CC(C)C)C(=O)N[C@@H](Cc2ccccc2)C(=O)N2CCC[C@H]2C1=O |
| 1.3 | CC(C)C[C@@H]1NC(=O)[C@@H](C)NC(=O)[C@H](Cc2ccccc2)NC(=O)CN(Cc2ccccc2)C(=O)[C@H]2CCCN2C(=O)[C@@H](CC(C)C)N(C)C1=O |
| 1.4 | CC(C)C[C@@H]1C(=O)N(Cc2ccccc2)CC(=O)N2CCC[C@H]2C(=O)N(C)[C@@H](CC(C)C)C(=O)N[C@@H](Cc2ccccc2)C(=O)N2CCC[C@H]2C(=O)N(C)[C@@H](C)C(=O)N1C |
| 6.9 | CCCN1CC(=O)N(C)[C@@H](CC(C)C)C(=O)N[C@H](CC(C)C)C(=O)N2CCC[C@@H]2C(=O)N(C)[C@@H](CC(C)C)C(=O)N[C@@H](Cc2ccccc2)C(=O)N2CCC[C@@H]2C1=O |
| 1 | CC(C)C[C@H]1NC(=O)C[C@H](Cc2ccccc2)NC(=O)[C@@H]2CCCN2C(=O)[C@H](Cc2ccccc2)NC(=O)[C@H](CC(C)C)N(C)C(=O)[C@@H]2CCCN2C(=O)CN(Cc2ccccc2)C1=O |
| 0.38 | CC(C)C[C@@H]1C(=O)N2CCC[C@H]2C(=O)N(Cc2ccccc2)CC(=O)N[C@@H](Cc2ccccc2)C(=O)N2CCC[C@@H]2C(=O)N[C@H](C)C(=O)N[C@H](CC(C)C)C(=O)N1C |
| 2.1 | CCCN1CC(=O)N[C@@H](CC(C)C)C(=O)N[C@@H](CC(C)C)C(=O)N2CCC[C@H]2C(=O)N(C)[C@@H](CC(C)C)C(=O)N[C@@H](Cc2ccccc2)C(=O)N2CCC[C@@H]2C1=O |
| 13 | CCCN1CC(=O)N(C)[C@@H](CC(C)C)C(=O)N(C)[C@H](CC(C)C)C(=O)N2CCC[C@@H]2C(=O)N(C)[C@@H](CC(C)C)C(=O)N[C@@H](Cc2ccccc2)C1=O |
| 13 | CC(C)C[C@@H]1C(=O)N[C@@H](Cc2ccccc2)C(=O)N(C)[C@@H](C)C(=O)N(C)[C@@H](CC(C)C)C(=O)N[C@@H](Cc2ccccc2)CC(=O)N2CCC[C@H]2C(=O)N1C |
| 0.76 | CC(C)C[C@@H]1NC(=O)[C@H](C)NC(=O)[C@H]2CCCN2C(=O)[C@H](Cc2ccccc2)NC(=O)[C@H](CC(C)C)N(C)C(=O)[C@H]2CCCN2C(=O)CN(Cc2ccccc2)C1=O |
| 10 | CCCN1CC(=O)N[C@H](CC(C)C)C(=O)N(C)[C@H](CC(C)C)C(=O)N2CCC[C@H]2C(=O)N(C)[C@H](CC(C)C)C(=O)N[C@@H](Cc2ccccc2)C(=O)N2CCC[C@@H]2C1=O |
| 0.56 | CC(C)C[C@@H]1C(=O)N[C@@H](Cc2ccccc2)C(=O)N2CCC[C@H]2C(=O)N(C)[C@@H](C)C(=O)N[C@H](CC(C)C)C(=O)N(Cc2ccccc2)CC(=O)N2CCC[C@H]2C(=O)N1C |
| 0.47 | CC(C)C[C@@H]1NC(=O)[C@@H](C)NC(=O)[C@@H]2CCCN2C(=O)[C@H](Cc2ccccc2)NC(=O)[C@H](CC(C)C)NC(=O)[C@@H]2CCCN2C(=O)[C@@H](CC(C)C)NC1=O |
| 0.93 | CC(C)C[C@@H]1NC(=O)[C@@H](CC(C)C)NC(=O)C[C@H](Cc2ccccc2)NC(=O)[C@H]2CCCN2C(=O)[C@H](Cc2ccccc2)NC(=O)[C@@H](CC(C)C)NC(=O)[C@@H]2CCCN2C1=O |
| 1.3 | CC(C)C[C@@H]1C(=O)N(C)[C@H](CC(C)C)C(=O)N2CCC[C@@H]2C(=O)N(Cc2ccccc2)CC(=O)N[C@@H](Cc2ccccc2)C(=O)N2CCC[C@@H]2C(=O)N[C@@H](C)C(=O)N1C |
| 0.46 | CC(C)C[C@@H]1NC(=O)[C@@H](CC(C)C)NC(=O)[C@@H](C)NC(=O)[C@H](Cc2ccccc2)NC(=O)CN(Cc2ccccc2)C(=O)[C@@H]2CCCN2C1=O |
| 3.9 | CC(C)C[C@@H]1NC(=O)[C@@H](C)N(C)C(=O)[C@H](Cc2ccccc2)NC(=O)[C@H](CC(C)C)N(C)C(=O)[C@H]2CCCN2C(=O)[C@H](CC(C)C)NC1=O |

Excerpt, the opening 2 entries:

| SMILES | PAMPA (10^-6 cm/s) |
|---|---|
| CCCN1CC(=O)N[C@H](CC(C)C)C(=O)N(C)[C@@H](CC(C)C)C(=O)N2CCC[C@@H]2C(=O)N[C@@H](CC(C)C)C(=O)N[C@@H](Cc2ccccc2)C(=O)N2CCC[C@H]2C1=O | 1 |
| CC(C)C[C@@H]1NC(=O)[C@@H](C)NC(=O)[C@H](Cc2ccccc2)NC(=O)CN(Cc2ccccc2)C(=O)[C@H]2CCCN2C(=O)[C@@H](CC(C)C)N(C)C1=O | 1.3 |

Collected by the curators of CycPeptMPDB (Li et al. 2023) from Townsend et al. 2020, doi:10.26434/chemrxiv.13335941.v1.